Data on one molecule can be found in US11447825B2, “In-vitro methods for the detection of autoimmune diseases or conditions” (Universitätsmedizin der Johannes Gutenberg-Universität Mainz, priority 2015, dated 2022).

Common to all, as to format: in vivo, human
The subject of experiment [1] is PGC-1α. The experiment is described as follows: IFN-β therapy of MS patients: PGC-1α mRNA in activated T-cells by qRT-PCR. The following applies: CD3+ T-cells of IFN-β-treated MS patients, activated 4 h with anti-CD3 and anti-CD28 mAb; comparable to HC. How it is done: (§1) 85 patients with a relapsing-remitting course (RRMS, age 18 to 64 years) and 4 patients with a clinically isolated syndrome (CIS, age 22 to 53) all fulfilling the revised McDonald criteria for multiple sclerosis were included in this study. 31 patients were treated for at least 4 month with IFN-β. 58 patients had not received previous treatment or immunosuppressive agents six months before time point of analysis and were clinically stable. PBMC from healthy controls served as controls. PBMC were isolated within 12 h after blood collection and were used directly in in vitro experiments. Blood was kept at room temperature before PBMC enrichment. […]
RNA was extracted from 2×10^6 cells using Rneasy Kit (Qiagen) according to manufacturer's instructions. cDNA was generated by reverse transcription with Sensiscript RT Kit (Qiagen) and amplified by quantitative RT-PCR (qRT-PCR, 7300 Real Time PCR System (Applied Biosystem) and the QuantiFAST PCR Kit (Qiagen). Relative IL-6 mRNA (QuantiTect Primer, Qiagen) expression levels were normalized to EF1-α or β-Actin. Relative PPARGC1α, IRF8, FGF19, HNF4A, Hdac, RORA mRNA was analyzed with QuantiTect Primer Assay (Qiagen) according to manufacturer's instructions and expression levels were normalized to β-ACT. […]
(In general: In qPCR the cycle at which signal appears reflects the starting amount.)

The subject of experiment [2] is IL-6R. The experiment is described as follows: IFN-β therapy of MS patients: IL-6R expression within CD3+ T-cells by flow cytometry. The following applies: IL-6R+ cells within CD3+ T-cells, IFN-β-treated versus therapy-naïve MS patients. How it is done: as §1
(§2) For surface staining of PBMC or T-cells indicated antibodies were incubated for 30 min at 4° C. and washed twice with PBS. Stained cells were measured on LSRII with FACS Diva Software (BD Bioscience). […]
(§3) A) Treg-depleted PBMC from therapy-naïve (black), IFN-β-treated MS patients (blue) or HC (white) were cocultured with allogeneic Treg and stimulated with anti-CD3 mAb. T cell proliferation was determined by 3H-Tdr incorporation on day three. […] B) PKB/c-Akt phosphorylation was determined by flow cytometry within CD3^+ T-cells from therapy-naïve (red), IFN-βtreated MS patients (blue) or HC (black). […] C) IL-6R expression within PBMC from HC (black), therapy-naïve (red), or IFN-β-treated (blue) MS patients was determined by flow cytometry. […]
For orientation: Flow cytometry measures light scatter and fluorescence of single cells or particles in a stream.

For experiment [3], the system named is peripheral T-cells of MS patients. The experiment is described as follows: IFN-β therapy of MS patients: sensitivity of peripheral T-cells to Treg-mediated suppression. The note with it: four month treatment with IFN-β, Treg ratio 1:1, compared with therapy-naïve MS and HC. How it is done:
as §1
Treg-depleted PBMC (10^5 cells) were stimulated with 0.5 μg/ml anti-CD3 mAb (OKT-3) and cultured in presence or absence of different Treg ratios (Treg:T-cells 1:1 to 1:64) (Jonuleit et al., 2001; Kubach et al., 2007). T-cell proliferation was determined on day three of cultures by addition of 37 kBq/well ^3H-Tdr for additional 16 h. […] Proliferation was assessed on day 3 after excluding dead cells. Analysis was performed on LSRII (BD Bioscience) and evaluated using DIVA software (BD Bioscience).
A) Treg-depleted PBMC from therapy-naïve (black), IFN-β-treated MS patients (blue) or HC (white) were cocultured with allogeneic Treg and stimulated with anti-CD3 mAb. T cell proliferation was determined by 3H-Tdr incorporation on day three. […]

Experiment [4] relates to PKB/c-Akt. The experiment is described as follows: IFN-β therapy of MS patients: PKB/c-Akt phosphorylation in CD3+ T-cells. The following applies: CD3+ T-cells of IFN-β-treated versus therapy-naïve MS patients. How it is done:
as §1, §2, §3

B1: IFN-β: standard therapy in the treatment of relapsing remitting MS (protein, UniProt P01574 22-187, looked up)
Interferon beta: MSYNLLGFLQRSSNFQCQKLLWQLNGRLEYCLKDRMNFDIPEEIKQLQQFQKEDAALTIYEMLQNIFAIFRQDSSSTGWNETIVENLLANVYHQINHLKTVLEEKLEKEDFTRGKLMSSLHLKRYYGRILHYLKAKEYSHCAWTIVRVEILRNFYFINRLTGYLRN
Take B1: in experiment [1], the “PGC-1α mRNA expression after activation” value was “significant up-regulation of PGC-1α”. The IL-6R expression entry in experiment [2] is “decreased IL-6R expression”. In addition, the “sensitivity of peripheral T-cells to Treg-mediated suppression” value in experiment [3] was “restored sensitivity of peripheral T-cells to Treg-mediated suppression nearly to a level of T-cells from HC”. Besides, the PKB/c-Akt phosphorylation result in experiment [4] was “reduced PKB/c-Akt phosphorylation”.
